This note sets out measurements from paper PMC9303312, “Balancing Histone Deacetylase (HDAC) Inhibition and Drug‐likeness: Biological and Physicochemical Evaluation of Class I Selective HDAC Inhibitors” (Chemmedchem, 2022).

Protein sequences, listed by entry. Tags and fused reporters are not part of them.
UniProt Q13547, whole entry: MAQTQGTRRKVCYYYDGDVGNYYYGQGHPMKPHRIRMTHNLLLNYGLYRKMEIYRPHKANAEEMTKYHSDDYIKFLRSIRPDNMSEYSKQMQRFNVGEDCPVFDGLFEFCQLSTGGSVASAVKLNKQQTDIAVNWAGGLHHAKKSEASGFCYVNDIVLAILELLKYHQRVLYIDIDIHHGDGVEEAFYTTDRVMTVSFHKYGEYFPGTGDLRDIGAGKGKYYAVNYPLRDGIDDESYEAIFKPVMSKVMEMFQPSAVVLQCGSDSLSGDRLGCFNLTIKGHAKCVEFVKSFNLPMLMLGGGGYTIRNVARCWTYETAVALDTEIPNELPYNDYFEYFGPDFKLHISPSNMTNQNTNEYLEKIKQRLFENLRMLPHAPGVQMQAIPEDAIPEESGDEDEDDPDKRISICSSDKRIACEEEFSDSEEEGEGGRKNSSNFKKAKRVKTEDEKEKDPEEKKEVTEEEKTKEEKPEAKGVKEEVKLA

This experiment has as its target HDAC1 (Homo sapiens, UniProt Q13547). Briefly: IC50-shift experiments (varied preincubation time). In kind it is biochemical. Conditions: triplicates.

Turning to `CN(C)c1ccc(C(=O)N(CC(=O)NC(C)(C)C)Cc2ccc(C(=O)Nc3cc(-c4ccncc4)ccc3N)cc2)cc1` [10 c], the concentration for half-maximal inhibition (IC50) was 53 nM (HDAC1 IC50, preincubation 5 min, preincubation time 5 min at 20°C); 48.9 nM (HDAC1 IC50, preincubation 15 min, preincubation time 15 min at 20°C); 34.7 nM (HDAC1 IC50, preincubation 30 min, preincubation time 30 min at 20°C); 27.9 nM (HDAC1 IC50, preincubation 60 min, preincubation time 60 min at 20°C).

As usually defined, the IC50 is the concentration needed to halve the response being measured.
